Like-named read-outs stand apart in the source and are kept apart here.
Tested on: Primary CLL cells
Experiment: 3 day co-treatment of primary CLL cells with alkylating agents and R(−)-etodolac, MTT viability
Settings: read-out: IC50, 3 Day Co-Treatment, alkylating agent alone

NP(=O)(O)N(CCCl)CCCl
IC50 (CLL sample EGF): 5.5 µM | IC50 (CLL sample GF): 1.9 µM | IC50 (CLL sample MAR): 0.8 µM | IC50 (CLL sample MAS): 0.6 µM | IC50 (CLL sample MS): 1.3 µM
